Patent US9604982B2, “P2X7 modulators” (Janssen Pharmaceutica NV, priority 2013, dated 2017)

Protein sequences, listed by entry. Tags and fused reporters are not part of them. Lines headed by an entry give the natural chain unless they say otherwise; changes in a name come on top.
UniProt Q64663: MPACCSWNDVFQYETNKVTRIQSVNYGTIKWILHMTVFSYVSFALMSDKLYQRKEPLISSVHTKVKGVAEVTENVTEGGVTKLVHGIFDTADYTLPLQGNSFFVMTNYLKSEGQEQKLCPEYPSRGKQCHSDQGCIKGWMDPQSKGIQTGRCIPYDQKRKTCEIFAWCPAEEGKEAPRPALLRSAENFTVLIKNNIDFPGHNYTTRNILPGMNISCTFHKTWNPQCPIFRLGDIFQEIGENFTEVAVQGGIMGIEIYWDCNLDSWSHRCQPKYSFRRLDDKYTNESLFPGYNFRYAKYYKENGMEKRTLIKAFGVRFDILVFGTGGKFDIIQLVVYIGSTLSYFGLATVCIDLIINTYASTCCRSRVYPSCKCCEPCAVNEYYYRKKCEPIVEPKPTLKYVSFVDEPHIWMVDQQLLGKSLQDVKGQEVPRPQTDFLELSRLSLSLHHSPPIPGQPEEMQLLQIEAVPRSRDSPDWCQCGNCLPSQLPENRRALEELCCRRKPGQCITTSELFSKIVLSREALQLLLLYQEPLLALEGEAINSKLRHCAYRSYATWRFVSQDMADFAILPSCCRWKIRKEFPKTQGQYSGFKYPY
UniProt Q99572: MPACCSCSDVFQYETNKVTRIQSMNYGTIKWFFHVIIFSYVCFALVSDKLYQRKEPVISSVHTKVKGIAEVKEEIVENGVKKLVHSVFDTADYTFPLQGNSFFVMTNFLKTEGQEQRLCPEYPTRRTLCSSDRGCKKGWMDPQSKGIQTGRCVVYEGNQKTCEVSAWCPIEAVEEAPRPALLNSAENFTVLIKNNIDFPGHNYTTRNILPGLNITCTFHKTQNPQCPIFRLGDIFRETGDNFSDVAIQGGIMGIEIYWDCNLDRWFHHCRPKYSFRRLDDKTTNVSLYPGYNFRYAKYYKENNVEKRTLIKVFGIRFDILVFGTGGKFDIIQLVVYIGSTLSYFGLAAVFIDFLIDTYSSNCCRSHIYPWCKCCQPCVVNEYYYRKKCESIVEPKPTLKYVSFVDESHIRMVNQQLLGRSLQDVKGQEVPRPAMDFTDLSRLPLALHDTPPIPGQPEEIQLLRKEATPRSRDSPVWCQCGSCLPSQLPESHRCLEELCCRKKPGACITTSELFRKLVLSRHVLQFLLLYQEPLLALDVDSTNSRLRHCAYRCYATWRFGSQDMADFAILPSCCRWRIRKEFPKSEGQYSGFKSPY

Tests used:
rat P2X7 = rat P2X7 (Rattus norvegicus (Rat), UniProt Q64663); test: Radioligand binding, rat P2X7-1321N1 cell membranes, tracer tritiated A-804598; conditions: Table 3 (additional runs)
Experimental: (§1) P2X7 Antagonism in Recombinant Human P2X7 Cells or Recombinant Rat P2X7 Cells: (a) Ca^2+ Flux and (b) Radioligand Binding
(§2) (b) Radioligand binding: human or rat P2X7-1321N1 cells were collected and frozen @ −80° C. On the day of the experiment, cell membrane preparations were made according to standard published methods. The total assay volume was 100 μl:10 μl compound (10×)+(b) 40 μl tracer (2.5×)+50 μl membrane (2×). The tracer used for the assay was tritiated A-804598. The compound can be prepared as described in the literature. […] The assay was terminated by filtration (GF/B filters pre-soaked with 0.3% PEI) and washed with washing buffer (Tris-HCl 50 mM). The IC50 generated in the binding assay was corrected for tracer concentration and affinity of the tracer to derive at the affinity (K) of the test compounds. […] Data are analyzed and graphed on Graphpad Prism 5.

P2X7 [1] = molecular target: T1, P2X7 (Homo sapiens (Human), UniProt Q99572); test: Ca2+ flux (FLIPR) in 1321N1 cells expressing recombinant human P2X7 channel; assay type: cell-based; conditions: Table 3 (additional runs); 250 μM BzATP
Experimental: as §1
(a) Ca^2+ flux: 1321N1 cells expressing the recombinant human or rat P2X7 channel was cultured in HyQ DME/(HyClone/Dulbecco's Modified Eagle Medium) high glucose supplemented with 10% Fetal Bovine Serum (FBS) and appropriate selection marker. Cells were seeded at a density of 25000 cells/well (96-well clear bottom black walled plates) in 100 μl volume/well. On the day of the experiment, cell plates were washed with assay buffer, containing (in mM): 130 NaCl, 2 KCl, 1 CaCl2, 1 MgCl2, 10 HEPES, 5 glucose; pH 7.40 and 300 mOs. After the wash, cells were loaded with the Calcium-4 dye (Molecular Device) and incubated in the dark for 60 minutes. Test compounds were prepared at 250× the test concentration in neat DMSO. Intermediate 96-well compound plates were prepared by transferring 1.2 μL of the compound into 300 μL of assay buffer. A further 3× dilution occurred when transferring 50 μL/well of the compound plate to 100 μL/well in the cell plate. Cells were incubated with test compounds and dye for 30 minutes. Calcium dye fluorescence was monitored in FLIPR as the cells were challenged by adding 50 μL/well of BzATP (final concentration is 250 μM BzATP (human and rat)). The fluorescence change was measured 180 seconds after adding the agonist.

P2X7 [2] = molecular target: T1, P2X7; test: Radioligand binding, human P2X7-1321N1 cell membranes, tracer tritiated A-804598; conditions: Table 3 (additional runs)
Experimental: as §1, §2

Row | Ki (rat P2X7) [µM] | IC50 (P2X7 [1]) [µM] | Ki (P2X7 [2]) [µM] | SMILES
1 | 0.0012 | – | – | Cc1nc2c(c(-c3ccn[nH]3)n1)C[C@H](C)N(C(=O)c1ccc(Cl)cc1F)C2 (single isomer, unassigned) [Example 89, (S*)-(4-chloro-2-fluorophenyl)(2,6-dimethyl-4-(1H-pyrazol-5-yl)-5,6-dihydropyrido[3,4-d]pyrimidin-7(8H)-yl)methanone]
2 | – | 0.0667 | – | Cc1nc2c(c(-c3ccn[nH]3)n1)C[C@@H](C)N(C(=O)c1cccc(F)c1Cl)C2 (single isomer, unassigned) [Example 144, (R*)-(2-chloro-3-fluorophenyl)(2,6-dimethyl-4-(1H-pyrazol-5-yl)-5,6-dihydropyrido[3,4-d]pyrimidin-7(8H)-yl)methanone]
3 | – | 0.0196 | 0.1 | Cc1nc2c(c(-c3ccn[nH]3)n1)CC(C)N(C(=O)c1cccc(F)c1Cl)C2 (stereo not shown) [Example 143, (2-chloro-3-fluorophenyl)(2,6-dimethyl-4-(1H-pyrazol-5-yl)-5,6-dihydropyrido[3,4-d]pyrimidin-7(8H)-yl)methanone]
